Legend:
[1] = target: human serotonin transporter (h-SERT) (Homo sapiens (Human), UniProt P31645); test: [3H] citalopram binding assay to evaluate human serotonin reuptake inhibitory action (h-SERT binding assay); conditions: h-SERT binding inhibition constant Ki, Test Ex. 1
[2] = target: T1, human serotonin 2C receptor (h-5-HT2C) (Homo sapiens (Human), UniProt P28335); test: [3H] mesulergine binding assay to evaluate affinity for human 5-HT2C receptor; conditions: Test Ex. 2, h-5-HT2C/CHO membrane preparation, read-out: 5-HT2C receptor binding inhibition constant Ki
[3] = target: T1, human serotonin 2C receptor (h-5-HT2C); test: 5-HT2C receptor agonistic action assay (FLIPR Calcium 4, h-5-HT2C/CHO cells; agonistic / inverse agonistic action); assay type: cell-based; conditions: Test Ex. 3; test material 10 μmol/L; 100% = 10 μmol/L 5-HT, −100% = 10 μmol/L SB206553; below 0% = inverse agonistic action
Description: 3-1. The Cells and Inoculation Thereof
In the experiment, human serotonin 2C receptor (h-5-HT2C) was expressed in CHO cells (h-5-HT2C/CHO). The cells were incubated with UltraCHO Lipuid (trademark) (manufactured by BioWhitakker) containing 1% FBS, 400 μg/mL Geneticin, 100 U/mL penicillin-100 μg/mL streptomycin (all manufactured by Sigma Aldrich) and 250 μg/mL Zeosin (manufactured by InvivoGen) in an incubator containing 5% CO2. On the day before using the cells, they were detached and collected using 250 μg/mL Trypsin solution (manufactured by Nacalai Tesque), then inoculated in a 96 well flat clear bottom black polystyrene TC-treated microplates (manufactured by Corning) at 40000 cells/well/60 μL in an incubator containing 5% CO2 for 16 hours to 24 hours.
3-2. 5-HT2C Receptor Agonistic Action Assay
The 5-HT2C receptor agonistic action was evaluated with FLIPR Calcium 4 Assay kit (manufactured by Molecular Devices). […] Then, the cells were set in FLIPR TETRA (trademark) (manufactured by Molecular Devices), to the cells was added the test material diluted with HHBP buffer, 2.5 mmol/L Probenecid (manufactured by Sigma) (concentration after dilution: 10 μmol/L) at an amount of 20 μL/well, and the fluorescence was measured. Then, in order to evaluate the antagonistic action of the test material, 20 μL/well of 5-HT solution (manufactured by Sigma, final concentration: 0.1 nmol/L) was further added to the cells, and the fluorescence was measured.
The 5-HT2C receptor agonistic action of each test material was calculated as a rate of fluorescence enhancement wherein 100% was defined as a value when the cells were given 10 μmol/L 5-HT. Furthermore, the 5-HT2C receptor inverse agonistic action was calculated as a rate of fluorescence decay wherein −100% was defined as a value when the cells were given 10 μmol/L SB206553 (manufactured by Sigma Aldrich). […]

Sequences of proteins named here, by UniProt entry; tags and fusion partners are left off. A change or cut given only in a name is not applied to a line headed by its entry.
UniProt P28335: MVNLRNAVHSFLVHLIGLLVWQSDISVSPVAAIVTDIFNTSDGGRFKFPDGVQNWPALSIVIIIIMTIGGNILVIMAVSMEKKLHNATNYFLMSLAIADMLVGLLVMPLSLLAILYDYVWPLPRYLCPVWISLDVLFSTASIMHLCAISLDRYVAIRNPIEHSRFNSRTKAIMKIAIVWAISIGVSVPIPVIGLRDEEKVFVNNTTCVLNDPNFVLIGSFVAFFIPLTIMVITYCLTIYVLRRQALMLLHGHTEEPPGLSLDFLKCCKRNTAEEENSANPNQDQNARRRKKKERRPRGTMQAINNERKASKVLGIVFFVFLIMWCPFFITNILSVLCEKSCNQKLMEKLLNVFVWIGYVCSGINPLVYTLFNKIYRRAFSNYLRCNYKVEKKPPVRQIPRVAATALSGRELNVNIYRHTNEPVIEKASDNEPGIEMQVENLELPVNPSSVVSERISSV

Row | Structure (SMILES) | 5-HT2C receptor agonistic action [3] [%] | Ki [1] [nM] | Ki [2] [nM]
1 | CNC(C)c1cc(OCc2cc(F)ccc2F)n(CCC2CCCC2)n1 (single isomer, unassigned; (+)) [Example 477, (+)-1-{1-(2-cyclopentylethyl)-5-[(2,5-difluorobenzyl)-oxy]-1H-pyrazol-3-yl}-N-methylethanamine] |  | 9.9 | 3.1
2 | CNC(C)c1cc(OCc2cc(F)ccc2F)n(CCC2CCCC2)n1 (single isomer, unassigned; (-)) [Example 476, (−)-1-{1-(2-cyclopentylethyl)-5-[(2,5-difluorobenzyl)-oxy]-1H-pyrazol-3-yl}-N-methylethanamine] |  | 14 | 2.3

Now from value to compound, other results behind:

Row | 5-HT2C receptor agonistic action [3] [%] | Structure (SMILES) | Ki [1] [nM] | Ki [2] [nM]
3 | −70 | CNCc1cc(OCc2cc(Cl)ccc2F)n(CC2CC2)n1 [Example 131, 1-{5-[(5-chloro-2-fluorobenzyl)oxy]-1-(cyclopropylmethyl)-1H-pyrazol-3-yl}-N-methylmethanamine] |  | 
4 | −118 | CNCc1cc(OCc2cc(F)ccc2F)n(CC(C)(C)C)n1 [Example 258, 1-{5-[(2,5-difluorobenzyl)oxy]-1-(2,2-dimethylpropyl)-1H-pyrazol-3-yl}-N-methylmethanamine] |  | 
5 | −77 | CNCc1cc(OCc2cc(F)ccc2F)n(CCC(C)C)n1 [Example 269, 1-{5-[(2,5-difluorobenzyl)oxy]-1-(3-methylbutyl)-1H-pyrazol-3-yl}-N-methylmethanamine] |  | 
